The series in a line: Solid-state stability of the co-crystal under storage, thermal stress and humidity, checked by XRPD.

Consider `Cl.Cl.N#Cc1ccc2[nH]cc(CCCCN3CCN(c4ccc5oc(C(N)=O)cc5c4)CC3)c2c1.N#Cc1ccc2[nH]cc(CCCCN3CCN(c4ccc5oc(C(N)=O)cc5c4)CC3)c2c1.O=C(O)C(O)C(O)C(=O)O`, for which the “XRPD spectrum after storage (physical stability)” value (closed in a sealed vial, one month at room temperature) is “shows a XRPD spectrum as substantially shown in FIG. 1”. Besides, the “Overall chemical and physical stability of the solid” value (summary of the stability tests) is “stable solid both from a chemical and physical point of view”.

The record behind these values is US20150126526A1, “CO-CRYSTAL OF AN ANTIDEPRESSANT COMPOUND” (Dipharma Francis S.r.l, priority 2013, published 2015).
